Source: patent US20160108115 (published 2016)
Where two headings read alike, the source gives them in different places. Each block holds one binder with its values, some of them ahead of it.

What was measured:
Test in all cases: SPR
human C5 [1] = molecular target: T1, human C5 (human, UniProt P01031)
human C5 [2] = molecular target: T1, human C5; remark: listed apart in the source
human C5 [3] = molecular target: T1, human C5; remark: listed apart in the source
human C5 [4] = molecular target: T1, human C5; remark: listed apart in the source
human C5 [5] = molecular target: T1, human C5; remark: listed apart in the source
human C5 [6] = molecular target: T1, human C5; remark: listed apart in the source
human C5 [7] = molecular target: T1, human C5; remark: listed apart in the source
human C5 [8] = molecular target: T1, human C5; remark: listed apart in the source
human C5 [9] = molecular target: T1, human C5; remark: listed apart in the source

Kd (human C5 [1]): 21.8 nM
Kd (human C5 [2]): 0.461 nM
Kd (human C5 [3]): 0.421 nM
Kd (human C5 [4]): 0.911 nM
Kd (human C5 [5]): 2.19 nM
Kd (human C5 [6]): 0.491 nM
Kd (human C5 [7]): 0.213 nM
B1: BNJ441 (antibody, V domains shown)
VH: QVQLVQSGAEVKKPGASVKVSCKASGHIFSNYWIQWVRQAPGQGLEWMGEILPGSGHTEYTENFKDRVTMTRDTSTSTVYMELSSLRSEDTAVYYCARYFFGSSPNWYFDVWGQGTLVTVSS
VL: DIQMTQSPSSLSASVGDRVTITCGASENIYGALNWYQQKPGKAPKLLIYGATNLADGVPSRFSGSGSGTDFTLTISSLQPEDFATYYCQNVLNTPLTFGQGTKVEIK

Kd (human C5 [8]): 1190 nM
Kd (human C5 [9]): 0.146 nM
B2: EHG303 (antibody, V domains shown)
VH: B1 VH
VL: B1 VL
